Here are results for 41 molecules from PubChem BioAssay AID651710 (Broad Institute, 2012).

Chains of the proteins cited; added tags and fusions are not shown. Lines headed by an entry give the natural chain unless they say otherwise; changes in a name come on top.
UniProt P43351: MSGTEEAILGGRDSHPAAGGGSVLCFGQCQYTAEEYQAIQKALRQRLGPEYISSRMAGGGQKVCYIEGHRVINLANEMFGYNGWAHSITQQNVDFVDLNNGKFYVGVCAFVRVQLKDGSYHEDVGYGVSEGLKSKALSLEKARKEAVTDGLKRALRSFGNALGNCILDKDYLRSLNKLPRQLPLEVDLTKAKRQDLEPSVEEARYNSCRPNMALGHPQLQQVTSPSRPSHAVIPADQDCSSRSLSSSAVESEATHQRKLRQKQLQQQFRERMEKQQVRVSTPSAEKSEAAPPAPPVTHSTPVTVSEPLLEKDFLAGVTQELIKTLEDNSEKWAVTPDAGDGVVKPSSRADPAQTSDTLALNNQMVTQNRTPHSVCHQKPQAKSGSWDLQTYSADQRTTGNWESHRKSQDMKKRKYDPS

The entries are a selection whose mix differs from that of the whole data set. The source made the active and inactive calls.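 The calls were made as follows: active = every replicate showing at least 50% inhibition; inconclusive = mean inhibition at least 50% but not in every replicate; inactive = the rest.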

In the experiment the target is DNA repair protein RAD52 homolog (Homo sapiens) (UniProt P43351). Description: blockers of RAD52 strand annealing activity – biochemical, FRET, single point, set 2, primary screen (AID 651710). The following applies: recombinant RAD52 DNA annealing, FRET fluorescence; at 18.7 µM; stronger effect = higher value.
The inhibition is the drop in the measured response relative to a control, in per cent. With `CCOP1(=S)c2c(C)nn(CCC#N)c2N=C(c2ccc(F)cc2)N1C` (stereo unspecified), the inhibition is inactive: -5.02%.
`CN(C(=O)Cc1ccccc1)[C@@H]1CC[C@]2(CCCO2)C[C@H]1N1CCCC1`: the inhibition is inactive: -55.1%.
With `N#CCCN(C(=O)COC(=O)C(O)(c1ccccc1)c1ccccc1)c1ccc(F)cc1`, the inhibition is inactive: 0.163%.
Take `CN(C(=O)Cc1ccc(Cl)c(Cl)c1)[C@H]1CC[C@@]2(CCCO2)C[C@@H]1N1CCCC1`: the inhibition was inactive: -11.5%.
The value for `CN(C)C(=O)c1cc([N+](=O)[O-])cc2c1-c1c(cc([N+](=O)[O-])cc1[N+](=O)[O-])C2=O` was inactive: -0.502%; that for `NC(=O)Nc1ccc([As](=O)(O)O)cc1` was inactive: -1.2%.
For the molecule `[N-]=[N+]=NC1CCCCC1NC(=O)c1cc([N+](=O)[O-])cc([N+](=O)[O-])c1` (stereo unspecified), the inhibition was inactive: -5.17%.
Regarding `Cc1ccc(OP(=O)(Nc2ccc([N+](=O)[O-])cn2)Oc2ccc(C)cc2)cc1`, the inhibition was inactive: -10%.
As for `Cc1ccc2nc3c(c(C)c2c1)CC(C(Cl)Cl)S3` (stereo unspecified), the inhibition was inactive: -46%.
Turning to `O=[N+]([O-])c1ccc(-c2cc([N+](=O)[O-])c(O)c([N+](=O)[O-])c2)cc1`, the inhibition is inactive: 6.22%.
Next, `COc1cc(C(=O)NCC2(N3CCOCC3)CCCCC2)ccc1OCC(C)C`: inactive: -29.7%; `C[As](=O)(O)c1cccc(C(=O)O)c1`: inactive: 2.71%; `O=[As](O)(c1ccc(O)cc1)c1ccccc1O`: inactive: -2.59%.
Turning to `CC(C)NC(=O)NP(=O)(Oc1ccccc1)Oc1ccccc1`, the inhibition is inactive: -1.31%.
As for `O=C(OC1CN2CCC1CC2)c1cccc2[nH]cnc12` (stereo unspecified), the inhibition is inactive: 31.3%.
`COC(=O)C1(C)COP(=O)(N2CCCCCC2)OC1` (stereo unspecified): the inhibition is inactive: -3.9%.
Next, `CC(C)c1ccc(OP(=O)(Nc2ccccn2)Oc2ccccc2F)cc1` (stereo unspecified): inactive: -2.34%; `COc1ccc(CN2/C(=N\P(=O)(Oc3ccccc3)Oc3ccccc3)Cc3ccccc3C2C2CC2)cc1` (stereo unspecified): inactive: 14.4%.
For the molecule `O=P1(N(CCCl)CCCl)OCCCN1CCCl` (stereo unspecified), the inhibition is inactive: -1.11%.
Next, `O=P1(N(CCCl)CCCl)Nc2ccccc2N1`: inactive: -14.1%; `COc1cc(I)ccc1[As](=O)(O)O`: inactive: -0.409%.
As to `COc1ccc2nc(NP(=O)(c3ccccc3)c3ccccc3)sc2c1`, the inhibition is inactive: -5.85%.
The value for `Cc1c2c(nc3ccccc13)SC(C(Cl)Cl)C2` (stereo unspecified) was inactive: -7.1%.
Next, `Cc1cc(=O)[nH]c(N[N+](=O)[O-])n1`: inactive: -5.24%; `O=[N+]([O-])c1cc(Oc2ccc([N+](=O)[O-])cc2C(F)(F)F)cc([N+](=O)[O-])c1`: inactive: -1.67%; `COc1ccc(N/C(=N/P(=O)(N2CCOCC2)N2CCOCC2)N2CCOCC2)cc1`: inactive: -18.9%.
As for `O=C(O)C(=O)c1ccc(N(CCCl)CCCl)cc1`, the inhibition was inactive: -13.3%.
`O=C(Nc1ccncc1[N+](=O)[O-])c1ccc([N+](=O)[O-])cc1[N+](=O)[O-]`: the inhibition was inactive: -6.62%.
Regarding `COC(=O)C1(C)COP(=O)(N2CCCC2)OC1` (stereo unspecified), the inhibition is inactive: -2.84%.
With `COP1(=S)c2c(C)nn(CCC#N)c2N=C(c2ccc(F)cc2)N1C` (stereo unspecified), the inhibition is inactive: -7.26%.
Next, `O=C(OC1CN2CCC1CC2)c1cccc([N+](=O)[O-])c1` (stereo unspecified): inactive: -2.71%; `CCOC(=O)c1ccc(NC(=O)C(C)(CCl)SC)cc1` (stereo unspecified): inactive: 4.05%; `COP(=O)(OC)N1CC1c1ccccc1` (stereo unspecified): inactive: -3.95%.
For the molecule `CCCCOc1ccc(C(=O)NCC2(N3CCCCC3)CCCCC2)cc1OC`, the inhibition is inactive: -12.8%.
Take `CCOC(=O)Nc1ccc([As](=O)(O)O)c(O)c1`: the inhibition is inactive: -13.7%.
In the case of `O=C(O)C(O)c1ccc(N(CCCl)CCCl)cc1` (stereo unspecified), the inhibition is inactive: -23.3%.
Next, `CC1CCNP(=O)(N(CCCl)CCCl)O1` (stereo unspecified): inactive: 5.24%.
As to `O=P(Nc1ccccn1)(c1cccc2ccccc12)c1cccc2ccccc12`, the inhibition was inactive: 16.8%.
For the molecule `Cc1cc(SC(NC=O)C(Cl)(Cl)Cl)ncn1` (stereo unspecified), the inhibition was inactive: -30.5%.
The value for `O=[N+]([O-])c1ccc(Nc2ccc(Oc3ccc([N+](=O)[O-])cc3[N+](=O)[O-])cc2)c([N+](=O)[O-])c1` was inactive: -2.1%; that for `CCOC(=O)Nc1cccc([As](=O)(O)O)c1` was inactive: -7.04%.
